Measurements taken from PubChem BioAssay AID1040 (The Scripps Research Institute Molecular Screening Center, 2008).
The list shows a part of the results, in another mix than the full data. Activity calls are given as the source filed them.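 The calls were made as follows: active = inhibition above the campaign mean inhibition of all tested compounds plus 3 SD (cut at about 20% in these data); inactive = the rest.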

Protein sequences, listed by entry. Tags and fused reporters are not part of them.
UniProt P25929, whole entry, looked up: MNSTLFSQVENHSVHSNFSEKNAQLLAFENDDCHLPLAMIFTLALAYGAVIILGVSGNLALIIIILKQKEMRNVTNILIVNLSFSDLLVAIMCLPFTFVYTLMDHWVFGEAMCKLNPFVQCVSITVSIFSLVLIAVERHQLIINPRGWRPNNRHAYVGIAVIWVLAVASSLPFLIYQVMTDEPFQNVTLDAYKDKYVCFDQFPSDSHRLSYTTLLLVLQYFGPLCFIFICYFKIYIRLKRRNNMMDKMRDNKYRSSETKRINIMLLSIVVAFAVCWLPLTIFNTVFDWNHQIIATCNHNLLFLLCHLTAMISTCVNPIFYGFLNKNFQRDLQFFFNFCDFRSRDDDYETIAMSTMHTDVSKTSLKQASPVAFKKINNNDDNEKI

molecular target: Neuropeptide Y receptor type 1 (Homo sapiens) (UniProt P25929); assay: NPY-Y1 receptor antagonists, primary screen, cell-based (AID 1040); conditions: HEK293-CNG Y1 cells, membrane potential fluorescence; at 3.6 µM; stronger effect = higher value; NPY at EC95, then isoproterenol;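 also: 0% = DMSO wells given NPY plus isoproterenol and 100% = isoproterenol alone without NPY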

| SMILES | inhibition |
| --- | --- |
| CC(=O)N1C2C3N(C(C)=O)C1C1N(C(C)=O)C(C(N1C(C)=O)N3C(C)=O)N2C(C)=O | inactive: 5.45% |
| O=[N+]([O-])c1cccc2n[nH]nc12 | inactive: 4.99% |
| Cc1ccc(NP(=O)(Oc2ccccc2)Oc2ccccc2)nc1 | inactive: -0.93% |
| O=[N+]([O-])c1cc([N+](=O)[O-])c(CCNc2ccccc2)c([N+](=O)[O-])c1 | inactive: -3.71% |
| CCc1nc2c(n1)c1c(non1O)c1c2no[n+]1[O-] | inactive: 18.7% |
| COc1ccc(C2=NCC(CBr)S2)cc1 (stereo not given) | inactive: 5.06% |
| CC(C)=N/N=C(\N)N[N+](=O)[O-] | inactive: 2.56% |
| CN(C)C(=O)OCCc1n(C)cc[n+]1C | inactive: -4% |
| CC1CCN(C(=O)Oc2c(Cl)cc(Cl)c3cccnc23)CC1 | inactive: 8.08% |
| CCN(/C(=N/P(=O)(N1CCOCC1)N1CCOCC1)N1CCOCC1)c1ccc(OC)cc1 | inactive: 6.79% |
| O=[N+]([O-])c1ncn(CCn2ncnc2[N+](=O)[O-])n1 | inactive: 0.56% |
| Cc1cc(SC(NC(=O)c2ccc(F)cc2)C(Cl)(Cl)Cl)ncn1 (stereo not given) | inactive: -1.03% |
| CCOP(=O)(Nc1ccccc1)OCC | inactive: 4.64% |
| CCN(N=Nc1nonc1N)c1nonc1N | inactive: 0.48% |
| COc1ccccc1OP(=O)(Nc1ccc(C)cn1)Oc1ccccc1OC | inactive: 3.04% |
| CN1CCCC(OC(=O)C(c2ccccc2)c2ccccc2)C1 (stereo not given) | inactive: 0.82% |
| Clc1ccc(Cl)c(NC2=NCC(CBr)S2)c1 (stereo not given) | inactive: 2.2% |
| NC(=O)c1cc([N+](=O)[O-])cc([N+](=O)[O-])c1N | inactive: 2.09% |
| Cc1ccc(N/C(=N/P(=O)(N2CCOCC2)N2CCOCC2)N2CCOCC2)cc1 | inactive: -0.2% |
| CC(C)CC(=O)NC(Sc1ccc(Cl)cc1)C(Cl)(Cl)Cl (stereo not given) | inactive: 3.02% |
| Oc1ccccc1CNc1ccccn1 | inactive: 12.7% |
| O=C(NC(Sc1ccncn1)C(Cl)(Cl)Cl)c1ccccc1 (stereo not given) | inactive: -5.83% |
| Cc1c2non([O-])c-2c(C)[n+](=O)[n+]1[O-] | inactive: -4.19% |
| CC(C)(C)C(=O)NC(Sc1ccccc1)C(Cl)(Cl)Cl (stereo not given) | inactive: 8.32% |
| O=P1(Nc2nc3ccc(Cl)cc3s2)COc2ccccc2O1 (stereo not given) | inactive: -2.13% |
| CCOc1ccc(C2=NCC(CBr)S2)cc1 (stereo not given) | inactive: -3.07% |
| CC(=O)Nc1ccc(Oc2c([N+](=O)[O-])cc([N+](=O)[O-])cc2[N+](=O)[O-])cc1 | inactive: 9.51% |

| SMILES | inhibition |
| --- | --- |
| O=C(NC1CCS(=O)(=O)C1)NP(=S)(Oc1ccccc1)Oc1ccccc1 (stereo not given) | inactive: -2.44% |
| CCNC(=S)/N=C(\N)N[N+](=O)[O-] | inactive: -1.63% |
| c1ccc(-c2nn[nH]n2)c(-c2nn[nH]n2)c1 | inactive: 5% |
| CCOC(=O)NC(Sc1ccccc1)C(Cl)(Cl)Cl (stereo not given) | inactive: 0.5% |
| O=c1c2cc([N+](=O)[O-])ccc2[nH]c2c([N+](=O)[O-])cc([N+](=O)[O-])cc12 | inactive: 5.13% |
| COC(=O)c1cc2c(s1)N=C(c1ccccc1)N(C)P2(=O)N1CCOCC1 (stereo not given) | inactive: 1.15% |
| CC(=O)NC(SC(=S)N(CC(C)C)CC(C)C)C(Cl)(Cl)Cl (stereo not given) | inactive: 12.9% |
| Cc1ccc(OP(=O)(Nc2ccccn2)Oc2ccc(C)cc2)cc1 | inactive: 4.56% |
| CCC(=O)N1C2C3N(C(=O)CC)C1C1N(C(=O)CC)C(C(N1C(=O)CC)N3C(=O)CC)N2C(=O)CC | inactive: 6.38% |
| O=P(Nc1ccccn1)(c1ccc(Br)cc1)c1ccc(Br)cc1 | inactive: 11.8% |
| C(Cc1nn[nH]n1)Cc1nn[nH]n1 | inactive: 5.73% |
| O=C(OC1CN2CCC1CC2)c1cccc(Cl)c1 (stereo not given) | inactive: 3.59% |
| CC(=O)NC(SC(=S)N(C)C)C(Cl)(Cl)Cl (stereo not given) | inactive: 0.78% |
| c1nnnn1CCn1cnnn1 | inactive: -2.48% |
| O=P(Nc1nccs1)(c1ccccc1)c1ccccc1 | inactive: 5.47% |
| CC(C)C(=O)NC(Sc1ccccc1)C(Cl)(Cl)Cl (stereo not given) | inactive: -3.78% |
| Clc1n[nH]nc1-c1nn[nH][15n]1 | inactive: 8.55% |
| O=P1(Nc2ccccn2)COc2ccccc2OC1 | inactive: -5.44% |
| CC1(CBr)Cn2c(nc3ccccc3c2=O)S1 (stereo not given) | inactive: 1.68% |
| CN(C(=O)Cc1ccc(Cl)c(Cl)c1)[C@@H]1CCCC[C@H]1N1CCCC1 | inactive: 6.59% |
| CC(C)/C=N\N=C(\N)N[N+](=O)[O-] | inactive: 3.6% |
| CN(C)C1(CNC(=O)c2ccc(S(C)(=O)=O)cc2)CCCCC1 | inactive: 1.75% |
| Cc1nn(-c2ccccc2)c2c1P(=O)(N1CCOCC1)N(C)C(c1ccccc1)=N2 (stereo not given) | inactive: -5.45% |
| CC1CCC(C(C)C)C(OP(=O)(Nc2ccccn2)c2ccccc2)C1 (stereo not given) | inactive: 3.91% |
| Cc1ccc(OCC(=O)OC2CN3CCC2CC3)cc1 (stereo not given) | inactive: -0.22% |
| O=P1(Nc2ccc(Br)cn2)COc2ccccc2OC1 | inactive: 4.22% |
| O=P1(Nc2ncccn2)COc2ccccc2OC1 | inactive: -3.55% |

| SMILES | inhibition |
| --- | --- |
| CCOP1(=S)c2c(C)nn(CCC#N)c2N=C(c2ccccc2F)N1C (stereo not given) | inactive: -0.39% |
| O=P(Nc1nccs1)(Oc1ccccc1)Oc1ccccc1 | inactive: -3.51% |
| O=P(Nc1nccs1)(c1ccccc1)c1nc2ccccc2s1 (stereo not given) | inactive: 2.26% |
| O=[N+]([O-])c1ccc2c(c1)nnn2O | inactive: 11.6% |
| CCOP1(=S)c2c(C)nn(CCC#N)c2N=C(c2ccc(F)cc2)N1C (stereo not given) | inactive: 2.5% |
| Cc1cccc(OCC(=O)OC2CN3CCC2CC3)c1 (stereo not given) | inactive: 6.18% |
| COc1cc(C(=O)NCC2(N3CCOCC3)CCCCC2)cc(Cl)c1OC(C)C | inactive: -1.81% |
| COc1cc(C2NCCC3(OCCO3)C2(C)C)cc(OC)c1OC (stereo not given) | inactive: 1.86% |
| CCOP(=O)(Nc1cccc2ccccc12)OCC | inactive: -0.08% |
| Cc1ccc(NCCc2c([N+](=O)[O-])cc([N+](=O)[O-])cc2[N+](=O)[O-])cc1 | inactive: 6.36% |
| COc1ccc2nc(NP(=O)(c3ccccc3)c3ccccc3)sc2c1 | inactive: 4.83% |
| O=C(OC1CN2CCC1CC2)C12CC3CC(CC(C3)C1)C2 (stereo not given) | inactive: 5.6% |
| Cc1cc(=O)[nH]c(N[N+](=O)[O-])n1 | inactive: 1.48% |
| Cc1c2c(nc3ccccc13)SC(C(Cl)Cl)C2 (stereo not given) | inactive: -2.99% |
| COc1ccc(N/C(=N/P(=O)(N2CCOCC2)N2CCOCC2)N2CCOCC2)cc1 | inactive: 0.5% |
| Cc1ccc2nc3c(c(C)c2c1)CC(C(Cl)Cl)S3 (stereo not given) | inactive: -0.12% |
| CC(C)NC(=O)NP(=O)(Oc1ccccc1)Oc1ccccc1 | inactive: -0.39% |
| CCN(CC)C(=S)SC(NC=O)C(Cl)(Cl)Cl (stereo not given) | inactive: 3.32% |
| O=[N+]([O-])c1cc([N+](=O)[O-])c(-c2ccn[nH]2)s1 | inactive: 0.99% |
| ClCCSc1nnc(-c2cccnc2)o1 | inactive: -2.68% |
| Cc1cc(SC(NC(=O)c2ccccc2)C(Cl)(Cl)Cl)nc(C(C)C)n1 (stereo not given) | inactive: -4.81% |
| Cc1cc(SC(NC=O)C(Cl)(Cl)Cl)ncn1 (stereo not given) | inactive: 4.07% |
| O=P(Nc1ccccn1)(c1cccc2ccccc12)c1cccc2ccccc12 | inactive: 0.01% |
| O=C(COc1ccccc1)OC1CN2CCC1CC2 (stereo not given) | inactive: -9.98% |
| COP1(=S)c2c(C)nn(CCC#N)c2N=C(c2ccc(F)cc2)N1C (stereo not given) | inactive: 2.21% |
| CCC(C)N(CC(C)C)C(=S)SC(NC(C)=O)C(Cl)(Cl)Cl (stereo not given) | inactive: 3.31% |
